# Values joined by “and” are separate entries in the source; they are usually repeats but may differ in a detail not shown here. Equal values may be shown once.
# How the values were obtained:
# MerTK [1] = target: T1, MerTK (Homo sapiens, UniProt Q12866); experiment: KinaseProfiler kinase activity assay; format: biochemical; set-up: purchased EMD Millipore Corp. (KinaseProfiler service); conditions: ATP at Km
# T1 sequence (Q12866 21-999): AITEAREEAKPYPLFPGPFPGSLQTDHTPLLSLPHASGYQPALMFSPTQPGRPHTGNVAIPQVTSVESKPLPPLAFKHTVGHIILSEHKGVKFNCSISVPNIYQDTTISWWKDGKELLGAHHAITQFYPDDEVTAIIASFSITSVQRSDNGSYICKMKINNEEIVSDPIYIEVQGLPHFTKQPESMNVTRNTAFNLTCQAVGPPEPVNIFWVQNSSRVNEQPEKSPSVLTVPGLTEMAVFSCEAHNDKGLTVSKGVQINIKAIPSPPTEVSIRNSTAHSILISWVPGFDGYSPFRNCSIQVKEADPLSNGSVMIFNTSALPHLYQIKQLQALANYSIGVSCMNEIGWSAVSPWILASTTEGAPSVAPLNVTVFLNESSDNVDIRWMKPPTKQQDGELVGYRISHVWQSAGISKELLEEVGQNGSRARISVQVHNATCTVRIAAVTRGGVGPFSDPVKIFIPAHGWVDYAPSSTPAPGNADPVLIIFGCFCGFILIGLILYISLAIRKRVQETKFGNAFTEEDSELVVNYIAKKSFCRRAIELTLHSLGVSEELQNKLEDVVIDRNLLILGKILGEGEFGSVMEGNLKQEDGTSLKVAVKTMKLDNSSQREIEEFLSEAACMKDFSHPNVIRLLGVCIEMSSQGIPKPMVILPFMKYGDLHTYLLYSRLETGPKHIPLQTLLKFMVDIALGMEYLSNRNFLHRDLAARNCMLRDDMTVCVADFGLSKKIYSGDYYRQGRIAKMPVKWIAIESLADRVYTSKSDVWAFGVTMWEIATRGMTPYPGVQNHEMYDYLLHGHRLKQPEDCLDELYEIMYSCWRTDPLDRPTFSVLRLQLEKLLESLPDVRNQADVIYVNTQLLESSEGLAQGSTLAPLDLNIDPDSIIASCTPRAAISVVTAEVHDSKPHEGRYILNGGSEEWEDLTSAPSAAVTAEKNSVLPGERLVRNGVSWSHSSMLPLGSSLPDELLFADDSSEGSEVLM
# From the text: (§1) Detailed assay methodologies can be found in the relevant references cited herein, or in the KinaseProfiler Service Assay Protocols (v54, 2011) available from EMD Millipore (www.emdmillipore.com), or from the KinomeScan website (www.kinomescan.com), as appropriate. (For a more detailed description of KINOMEscan's assay technology, see: Fabian et al. A small molecule-kinase interaction map for clinical kinase inhibitors. Nat. Biotechnol. 23, 329-336 (2005)). A summary is provided below.
# KinaseProfiler™ assays (EMD Millipore Corp. Billerica, Mass., USA) are […] with purified or partially-purified human kinases. Most of the KinaseProfiler™ assays are conducted in 20 mM MOPS, 1 mM EDTA, 0.01% Brij-35, 5% Glycerol, 0.1% b-mercaptoethanol, 1 mg/mL BSA. The assay involves the transfer of ^32P from γ-^32P-ATP to the target peptide, followed by washing and trapping of the labeled peptide on a filter. The concentration of γ-^32P-ATP used was at the established Km for ATP.
# MerTK [2] = target: T1, MerTK; experiment: KinomeScan competition binding assay; set-up: purchased DiscoveRx Corporation (KinomeScan service)
# From the text: as §1
# KinomeScan™ assays (DiscoveRx Corporation, San Diego, Calif., USA) are active-site-directed competition binding assays. […] The amount of kinase captured in test versus control samples is determined by using a qPCR method that detects the associated DNA label on each kinase molecule. Dissociation constants (Kd) for test compound-kinase interactions are calculated by measuring the amount of kinase captured on the solid support as a function of the test compound concentration.
compound,measurement,setting,value
"Nc1nc(Nc2ccc3c(c2)CC[C@@H](N2CCCC2)CC3)nn1-c1cc2c(nn1)-c1ccccc1CCC2 [Compound A, 1-(6,7-dihydro-5H-benzo[6,7]cyclohepta[1,2-c]pyridazine-3-yl)-N^3-(7-(S)-(pyrrolidin-1-yl)-6,7,8,9-tetrahydro-5H-benzo[7]annulene-2-yl)-1H-1,2,4-triazole-3,5-diamine]",IC50,MerTK [1],< 46 nM and 12.5 nM
same,Kd,MerTK [2],100 nM

# Source: patent publication US9801880B2, “Use of kinase inhibitors” (BerGenBio AS, priority 2013, dated 2017)
